{"source": "patent US8895756B2", "about": "“Bendamustine pharmaceutical compositions” (priority 2005, dated 2014)", "key": {"[1]": {"test": "Reconstitution time of lyophilized bendamustine", "format": "physicochemical", "settings": "lyophilized vials from 10% ethanol, 20% ethanol, 10% iso-propanol, 20% iso-propanol solutions (15 mg/mL bendamustine, 25.5 mg/mL mannitol)", "description": "All alcohols tested increased the stability and solubility of bendamustine. However, a significant mole fraction was required to affect the stability of the filling solution and the ease of manufacturing. Smaller alcohols have the undesirable effect of lowering the freezing point of the bulk solution and thus requiring long lyophilization cycles at lower temperatures. Higher concentrations of methanol and ethanol produced unattractive cakes that were difficult to reconstitute. 10% ethanol, 20% ethanol, 10% iso-propanol, 20% iso-propanol, or 30% TBA aqueous solutions containing bendamustine (15 mg/mL), mannitol (25.5 mg/mL) were prepared and lyophilized. The lyophilized vials filled from solutions of 10% ethanol, 20% ethanol, 10% iso-propanol, 20% iso-propanol produced either a collapsed cake or a film residue. The only solvent system producing an acceptable cake was 30% TBA.\nOne of the factors affecting the ease of reconstitution is the porosity of the lyophilate. In general, amorphously precipitated solids with little surface area are more difficult to solubilize. […] Based on our experience with several lyophilization solvent systems and not wishing to be bound to any particular theory, the problems associated with Ribomustin® reconstitution may be associated with precipitation caused by melt back during lyophilization. […]"}, "[2]": {"settings": "30% (v/v) TBA, 15 mg/mL bendamustine, 25.5 mg/mL mannitol"}}}
{"smiles": "Cl.Cn1c(CCCC(=O)O)nc2cc(N(CCCl)CCCl)ccc21", "note": "[bendamustine, 4-{5-[Bis(2-chloroethyl)amino]-1-methyl-2-benzimidazolyl}butyric acid]", "values": [{"measurement": "reconstitution time until fully dissolved", "setting": "[1]", "value": "> 45", "unit": "min"}, {"measurement": "precipitation", "setting": "[2]", "value": "no precipitate"}]}
